This assay addresses T1, Fatty acid-binding protein, liver (Mus musculus, UniProt P12710).
T1 sequence (P12710 whole entry): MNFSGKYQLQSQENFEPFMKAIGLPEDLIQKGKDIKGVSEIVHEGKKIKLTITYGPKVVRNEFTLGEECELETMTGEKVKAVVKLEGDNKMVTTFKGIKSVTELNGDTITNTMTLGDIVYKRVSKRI
Description: FABP1 Fluorescent Ligand Displacement Assay.

The record followed here is BindingDB's records for doi:10.1021/acs.biochem.6b00446 (Avanti Polar Lipids, 2016).

As usually defined, the Ki is a dissociation constant, usually derived from enzyme kinetics or from competition with a known ligand. In turn, `CCCCC/C=C\C/C=C\C/C=C\C/C=C\CCCC(=O)NCCO` [Arachidonoyl ethanolamide] had an inhibition constant Ki of 111 nM.
